Literature values in article PMC8287861, “QPX7728, An Ultra-Broad-Spectrum B-Lactamase Inhibitor for Intravenous and Oral Therapy: Overview of Biochemical and Microbiological Characteristics” (Frontiers in Microbiology, 2021).

Target: NDM-1
Design: method as in Tsivkovski et al. (2020)
Settings: ref Tsivkovski et al. (2020)

With O=C(O)c1c(F)ccc2c1OB(O)[C@@H]1C[C@H]21 [QPX7728] as the molecule, how does the Kd (NDM-1 (text b23 calls it Ki)) read?
Its Kd is 0.032 ± 0.014 µM.

What about the Ki (NDM-1, competitive inhibitor) of the same molecule?
The Ki was roughly 0.032 µM.
